Results: PubChem BioAssay (NCATS)
The entries are a selection whose mix differs from that of the whole data set. Results filed as inconclusive are left out. Some salts and complexes are drawn in separate pieces, as the source files them; their charges need not balance. Activity calls are given as the source filed them. Calls come from the whole dose curve; as a rule, active = well fitted curve in the direction sought with a large enough effect; inconclusive = small, poorly fitted or top-dose-only effect, or another doubt; inactive = no such curve, though single readings can be large; an effect the other way counts as inactive or inconclusive.

The chains behind the UniProt entries cited, without tags or fusion partners.
UniProt P24462, whole entry: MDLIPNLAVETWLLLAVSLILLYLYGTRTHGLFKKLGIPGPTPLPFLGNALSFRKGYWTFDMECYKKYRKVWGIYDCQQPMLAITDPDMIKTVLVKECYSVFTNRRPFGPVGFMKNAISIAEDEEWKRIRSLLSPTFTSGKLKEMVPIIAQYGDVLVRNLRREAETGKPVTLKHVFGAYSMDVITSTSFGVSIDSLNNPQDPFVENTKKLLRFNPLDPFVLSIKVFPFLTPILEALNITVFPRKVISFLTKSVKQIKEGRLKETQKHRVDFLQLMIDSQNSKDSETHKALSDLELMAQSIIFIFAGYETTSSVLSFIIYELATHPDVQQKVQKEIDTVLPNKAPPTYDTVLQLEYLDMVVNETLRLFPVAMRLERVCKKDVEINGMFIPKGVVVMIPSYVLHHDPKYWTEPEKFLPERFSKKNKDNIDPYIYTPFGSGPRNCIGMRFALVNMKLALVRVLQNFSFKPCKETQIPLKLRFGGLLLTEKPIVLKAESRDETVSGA

Target: Cytochrome P450 3A7 (Homo sapiens) (UniProt P24462)
Assay: Cytochrome P450 family 3 subfamily A member 7 (CYP3A7) small molecule antagonists: luciferase qHTS assay (AID 1963596; note: % is set by controls: 0 for no effect and ±100 for the full control effect)
Conditions: P450-Glo CYP3A7 enzyme luminescence, 1 h; at 57.4 µM (top of the series) unless noted
Excerpt: National Center for Advancing Translational Sciences [NCATS] Assay Overview: Cytochrome P450 (CYP) enzymes are membrane-bound hemeproteins that play a key role in metabolism of drugs and xenobiotics. The CYP3A subfamily is the most abundant, representing 30% of the total adult hepatic CYP content, whereas CYP3A7 is found predominantly in human fetal liver and accounts up to 50% of the total fetal hepatic CYP content. Testing the effect of chemicals on CYP isozymes is useful to minimize the adverse drug reactions and toxicities in the drug development process. Chemicals were tested for their effect on CYP enzyme activities by using P450-Glo (TM) screening systems (Promega Corporation, Madison, WI). These systems provide a luminescent method containing proluciferin substrates and are converted to luciferin products by CYP isozymes. The luciferin products formed are detected with a luciferin detection reagent, and the amount of light produced is proportional to CYP activity. P450-Glo (TM) CYP3A7 screening system (Catalog. No. V8812) was used to detect the compounds that interfere with CYP3A7 activity. The positive control compound used for CYP3A7 assay is ketoconazole (Sigma-Aldrich, St. Louis, MO).
Assay Protocol Summary: Two ul of enzyme-substrate mix was dispensed into medium binding white/solid 1536-well plates (Greiner Bio-One North America Inc., Monroe, NC) using a Flying Reagent Dispenser (FRD, Aurora Discovery, San Diego, CA). Compounds dissolved in DMSO, and positive control (ketoconazole) were transferred to the assay plates at 23 nl using a Pintool station (Wako, San Diego, CA). The assay plates were incubated at room temperature for 10 min. Then 2 ul of NADPH regeneration solution was added to each well of the assay plates using an FRD and incubated at room temperature for 1 h. The reaction was stopped by adding 4 ul of detection reagent using an FRD and after 20 min incubation at room temperature the luminescence signal was measured using a ViewLux plate reader (Perkin Elmer, Shelton, CT). Data were expressed as relative luminescence units.
Note: nearly all actives have a fitted effect of over 40% in size.

| SMILES | activity change, negative = inhibition |
| --- | --- |
| C/C1=C2N=C(/C=C3N=C(/C(C)=C4\[N-][C@@](C)([C@@H]5N=C1[C@](C)(CCC(=O)NC[C@@H](C)OP(=O)([O-])O[C@H]1[C@@H](O)[C@@H](n6cnc7cc(C)c(C)cc76)O[C@@H]1CO)[C@H]5CC(N)=O)[C@@](C)(CC(N)=O)[C@@H]4CCC(N)=O)[C@@](C)(CC(N)=O)[C@@H]\3CCC(N)=O)C(C)(C)[C@@H]/2CCC(N)=O.[C-]#N.[Co+3] | inactive: 132% |
| CCOP(=O)(CC)Oc1ccc([N+](=O)[O-])cc1 (stereo not given) | inactive: -2.98% |
| OCCSCCO | inactive: -4.06% |
| Cc1cccc([N+](=O)[O-])c1[N+](=O)[O-] | inactive: 32.1% [at 115 µM] |
| O=[N+]([O-])c1cccc([N+](=O)[O-])c1 | inactive: 135% [at 115 µM] |

Tested on: not listed separately
Assay: Viability qHTS for spleen associated tyrosine kinase inhibitor (SYKi) naive MV4-11 cells (AID 1963823)
Conditions: MV4-11 AML viability, CellTiter-Glo luminescence, 72 h; at 45 µM (top of the series) unless noted
How it was run: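 Luminescence from CellTiter-Glo, developed 10 min at room temperature, gave viability of MV4-11 cells never exposed to SYK inhibitor. Cells (500/well) had been incubated with compounds for 72 hr under standard culture conditions.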

| SMILES | viability (% of control) |
| --- | --- |
| C/C1=C2/N=C(C(CC(N)=O)C2(C)CCC(=O)NCC(C)OP(=O)([O-])OC2C(CO)OC(n3cnc4cc(C)c(C)cc43)C2O)C2(C)N=C(/C(C)=C3N=C(/C=C4N=C1C(CCC(N)=O)C\4(C)C)C(CCC(N)=O)C/3(C)CC(N)=O)C(CCC(N)=O)C2(C)CC(N)=O.[C-]#N.[Co] (stereo not given) | inactive: 78.3% |
| C/C1=C2N=C(/C=C3N=C(/C(C)=C4\N=C(C(CC(N)=O)C4(C)CCC(=O)NCC(C)OP(=O)([O-])OC4C(CO)OC(n5cnc6cc(C)c(C)cc65)C4O)C4(C)N=C1C(CCC(N)=O)C4(C)CC(N)=O)C(CCC(N)=O)C\3(C)C)C(CCC(N)=O)C/2(C)CC(N)=O.[C-]#N.[Co] (stereo not given) | inactive: 67.2% [at 17.3 µM] |
| C/C1=C2N=C(/C=C3N=C(/C(C)=C4\[N-][C@@](C)([C@@H]5N=C1[C@](C)(CCC(=O)NC[C@@H](C)OP(=O)([O-])O[C@H]1[C@@H](O)[C@@H](n6cnc7cc(C)c(C)cc76)O[C@@H]1CO)[C@H]5CC(N)=O)[C@@](C)(CC(N)=O)[C@@H]4CCC(N)=O)[C@@](C)(CC(N)=O)[C@@H]\3CCC(N)=O)C(C)(C)[C@@H]/2CCC(N)=O.[C-]#N.[Co+3] | inactive: 55.6% |
| OCCSCCO | inactive: 101% |
| O=[N+]([O-])c1cccc([N+](=O)[O-])c1 | inactive: 77.4% [at 91.9 µM] |
